# Yeast mating assay B: variants of the scFv Ab-14

Reference: Li et al. 2023, doi:10.1038/s41467-023-39022-2. File: FLAb, binding data.

Antigen: PDVDLGDISGINAS, a 14-residue peptide of the SARS-CoV-2 spike HR2 region.

The variants keep the heavy chain, the linker and the frameworks of Ab-14 (scFv order VH, the linker GGGGSGGGGSGGGGS, VL).
VH: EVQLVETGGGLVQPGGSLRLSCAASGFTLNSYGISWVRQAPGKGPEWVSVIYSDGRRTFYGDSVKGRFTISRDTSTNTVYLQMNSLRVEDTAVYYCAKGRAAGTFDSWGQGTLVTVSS
VL: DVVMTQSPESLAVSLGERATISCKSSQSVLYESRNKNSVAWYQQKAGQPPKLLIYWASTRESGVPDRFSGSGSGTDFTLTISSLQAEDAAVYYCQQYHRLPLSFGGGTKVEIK

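The parent was found by panning a naive human phage display library on the peptide. This is the validation round: designs drawn from the data on random variants, tested in the same kind of assay. Group labels follow the data file (Ctrl: baseline library sampled from a position-specific scoring matrix, with some repeated check sequences; Rand: our label for a block that the file lists under HC and that is probably the random mutants of the ten best first-round binders; En: ensemble of fine-tuned language models; GP: Gaussian process model; HC: hill climbing; Gen: genetic algorithm; Gibbs: Gibbs sampling; a sequence that several methods proposed may carry one label only). Affinity was read by AlphaSeq, a pooled yeast mating assay with surface-displayed partners. Pairs that bind mate more often; barcode pairs of the diploids are counted by sequencing. Scores were corrected for input abundance and mapped to Kd with protein pairs of known affinity run in the same pool. Mating was done six times.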

Each variant is given by its three light chain CDRs, as the data file delimits them; those of the parent are KSSQSVLYESRNKNSVA, WASTRES, QQYHRLPLS.
Kd is apparent (estimated from mating counts) and averaged on the log scale over replicates with a signal. Smaller is tighter.
Where no diploid with the target was found in any replicate, the entry reads "nd": below detection, most likely a poor binder, though not proof of it.
Order: sorted from the lowest average up, undetected variants last.
The authors averaged sequences with at least three values out of six and counted those with two or fewer as poor binders.

apparent Kd	detected	empty controls	CDR-L1	CDR-L2	CDR-L3	group
530 pM	6/6	0/18	KLSPSFLYESRNKNSVA	DASTRLE	QQYHRLPLS	GP_Gibbs
570 pM	6/6	0/18	KFSQSFLYESRNKNSVA	EASTRES	QQYHRLPLS	GP_Gen
620 pM	6/6	0/18	KQSQAVPYEQRNKNNVA	DGSTRES	QQYHRLPLS	GP_Gibbs
760 pM	6/6	0/18	KLSQLWLYESRNKNSVA	NASQRES	QQYHRLPLS	GP_Gen
780 pM	6/6	4/18	KLSQSVLYESRNKNSVA	NASTRAS	QQYHRLPLS	GP_Gen
920 pM	6/6	1/18	KLQQSVLYEERNKNSVA	NASTRLS	QQYHRLPLS	GP_Gen
930 pM	6/6	0/18	KLPQQTLYETRNKNSVA	WASTREE	QQYHRLPLS	GP_HC
980 pM	6/6	1/18	KVSQMQPYEERNKNNVA	NASTRMS	QQYHRLPLS	GP_Gibbs
1.0 nM	6/6	1/18	KVSQLVLYESRNKNSVA	NASTRES	QQYHRLPLS	GP_Gen
1.3 nM	6/6	0/18	KSEQSSWYEDRNKNSVA	NASLRCS	QQYHRLPLS	GP_Gibbs
1.3 nM	6/6	2/18	KLDQSVLYESRNKNSVA	EASQRES	QQYHRLPLS	GP_Gen
1.4 nM	6/6	0/18	HSSQSKLYESTHKNSVA	QASTRES	QQYHRLPLS	Ctrl
1.5 nM	6/6	1/18	KFSQWVLYESRTKNSVA	NASTRED	QQYHRLPLS	GP_HC
1.5 nM	6/6	2/18	KVDQSWWYESRNKNSVA	NASTRER	QQYHRLPLS	GP_Gibbs
1.6 nM	6/6	2/18	KLQNFSQEYNKMWNNIA	DMTMKHT	QQYNRLPLV	En_Gibbs
1.9 nM	6/6	2/18	KFEQSVLYESRTKNSVA	NASTRES	QQYHQLPLS	GP_HC
2.0 nM	6/6	2/18	TISMVMNHMTKNKMNVA	NMDMRED	QQYDRLPLS	En_Gen
2.0 nM	6/6	0/18	KMSQSVPYEERNKNSVA	NASKRES	QQYHRLPLS	GP_Gibbs
2.1 nM	6/6	3/18	KMSQSVLYESRNKNSVA	NGSTRES	QQYHRLPLS	GP_Gen
2.2 nM	6/6	1/18	SMSNLQEVPDVWKNSIA	DAEHVEY	QQYSRLPLT	En_Gibbs
2.5 nM	6/6	1/18	KVQQSWLYESRNKNSVA	EASTRES	QQYHRLPLS	GP_Gen
2.7 nM	6/6	0/18	KLSQSWLYESRNFNSVA	NASTRES	QQYHRLPLS	GP_Gen
3.1 nM	6/6	0/18	KLGGATRFETSNKASIA	NNSTREE	QQYHRLPLS	En_HC
3.3 nM	6/6	0/18	HIDQVKAEQKTAENNIA	SGAERVW	QQYSRLPFS	En_Gibbs
3.7 nM	6/6	0/18	KISSSVLYESRNKNSVA	WASTRES	QQYHRLPLS	Ctrl
4.1 nM	6/6	0/18	KIDENTNHGANRQNNIA	EARTVGA	QQYFRLPII	En_Gibbs
5.2 nM	6/6	0/18	KLAQSDLYESRNKNSVA	NASTRES	QQYHRLPLS	GP_Gen
5.2 nM	6/6	0/18	KLGQMTAIESRNLNSVA	QMDTREK	QQYDRLPLS	En_HC
5.6 nM	6/6	0/18	KSEISYLYESRNKNSVA	EASTRES	QQYHRLPLS	GP_HC
7.2 nM	6/6	0/18	KLRQSTQYESRNQNSVA	WASLRES	QQYHRLPLS	GP_HC
7.5 nM	6/6	1/18	KVSPSVLGEMRNDNSVA	NASTRRS	QQYHRLPLS	GP_Gibbs
8.2 nM	6/6	2/18	NITGMVEEIGTTTKNIA	EGEFRCG	QQYSRLPLS	En_Gibbs
9.1 nM	6/6	1/18	TIGQTLMQGIRNRSNVA	EVSQRLN	QQYDRLPLT	En_Gen
10 nM	6/6	0/18	KSSQSFLYESRNKYSVA	GASTRES	QQYHRLTLS	Rand
10 nM	6/6	0/18	KLSQSVLYESVNKNSVA	DASTRES	QQYHRLPLS	GP_HC
11 nM	6/6	0/18	KISQLVNFEGKNINSVA	QMSTRES	QQYDRLPLS	En_HC
13 nM	6/6	3/18	MMSQVTGLGQRHRNNVA	QTSMREI	QQYDRLPLI	En_Gen
13 nM	6/6	0/18	QLESLMGESYAYKENIA	EGEQRFS	QQYVRLPLH	En_Gibbs
13 nM	6/6	0/18	HMSALTMLGMRQRNSVA	QMTTREN	QQYDRLPLV	En_Gen
17 nM	6/6	0/18	TIGAQLMYGMRNWSNVA	EVSERLN	QQYDRLPLF	En_Gen
18 nM	6/6	1/18	NISHFMDVTAKHNNNVA	EMTMREE	QQYHHLPLS	En_Gen
20 nM	6/6	0/18	KSSQSVLYESRNQNPVA	GASTRES	QQYHRLPLV	Ctrl
27 nM	6/6	2/18	KVSYSMDYESRNKNSVA	EASDRLS	QDYHRLPLS	GP_Gibbs
43 nM	6/6	0/18	MIAESVMYQSRNKNSVA	DNSTRED	QCYDRLPLS	En_HC
52 nM	6/6	0/18	RIGITSDYYMENRSSIA	EMTVKEM	QQYQKLPLA	En_Gibbs
95 nM	6/6	1/18	KQSQSVWYESRNKNSVA	DASTRCS	QQYHRLPLS	GP_HC
120 nM	6/6	0/18	KFSQSVLYESENKNSVA	WASTRES	QDYHRLPLS	Ctrl
130 nM	5/6	1/18	KLLQEVTGRSQNRNSVA	HNSTRED	QQYDRLPLI	En_HC
140 nM	6/6	1/18	NMTEQVFNGSRNKYNIA	AEVKRVY	QQYQRLPLM	En_Gibbs
150 nM	6/6	1/18	KSDQSVLYESRNKNSVA	WASTRET	QQYHRLPLS	Ctrl
160 nM	5/6	1/18	HLLQTVMYGSTRKNSVA	HAQTREN	QQYHRLPLM	En_HC
160 nM	5/6	1/18	HLSFVVLYESRNKNSVA	NASTRES	QQYHRLPLS	GP_HC
250 nM	1/6	0/18	IVSQLMLWGMKAKNSIA	EAQTRVN	QQYDRLPLI	En_Gen
nd	0/6	0/18	MVSQIMLWGLHAKNSIA	EAQMRLN	QQYDRLPLF	En_Gen
nd	0/6	0/18	KSSQSVLYESRRKNSVA	WALTPEQ	TKYHRLPLS	Ctrl
nd	0/6	0/18	KSSQSVLYESRNKNSVA	WASTRES	QQYHYLPLS	Ctrl
nd	0/6	0/18	KSSQSVLYESRNKNSVA	WASTRES	QVYHRLPLS	Ctrl
nd	0/6	0/18	KSSQSVLYESRNKNAVA	WASTRES	QQYHRLQLS	Ctrl

Excerpt, the first 4 entries:

CDR-L1	CDR-L2	CDR-L3	group	apparent Kd	detected	empty controls
KLSPSFLYESRNKNSVA	DASTRLE	QQYHRLPLS	GP_Gibbs	530 pM	6/6	0/18
KFSQSFLYESRNKNSVA	EASTRES	QQYHRLPLS	GP_Gen	570 pM	6/6	0/18
KQSQAVPYEQRNKNNVA	DGSTRES	QQYHRLPLS	GP_Gibbs	620 pM	6/6	0/18
KLSQLWLYESRNKNSVA	NASQRES	QQYHRLPLS	GP_Gen	760 pM	6/6	0/18

As a blank, each scFv also met three strains without target: over all light chain designs, 4% of these pairings were detected, typically at 430 nM and seldom below 38 nM. The control count says in how many pairings with the empty strains this scFv gave a signal.
Values of this round are not directly comparable with the first-round values of the same sequences.